These are literature values, as cited in patent US20030013883A1, “Tropane analogs binding to monoamine transporters” (priority 2000, published 2003).

Sequences of proteins named here, by UniProt entry; tags and fusion partners are left off. Residues count along the entry.
UniProt Q63380, 1-617: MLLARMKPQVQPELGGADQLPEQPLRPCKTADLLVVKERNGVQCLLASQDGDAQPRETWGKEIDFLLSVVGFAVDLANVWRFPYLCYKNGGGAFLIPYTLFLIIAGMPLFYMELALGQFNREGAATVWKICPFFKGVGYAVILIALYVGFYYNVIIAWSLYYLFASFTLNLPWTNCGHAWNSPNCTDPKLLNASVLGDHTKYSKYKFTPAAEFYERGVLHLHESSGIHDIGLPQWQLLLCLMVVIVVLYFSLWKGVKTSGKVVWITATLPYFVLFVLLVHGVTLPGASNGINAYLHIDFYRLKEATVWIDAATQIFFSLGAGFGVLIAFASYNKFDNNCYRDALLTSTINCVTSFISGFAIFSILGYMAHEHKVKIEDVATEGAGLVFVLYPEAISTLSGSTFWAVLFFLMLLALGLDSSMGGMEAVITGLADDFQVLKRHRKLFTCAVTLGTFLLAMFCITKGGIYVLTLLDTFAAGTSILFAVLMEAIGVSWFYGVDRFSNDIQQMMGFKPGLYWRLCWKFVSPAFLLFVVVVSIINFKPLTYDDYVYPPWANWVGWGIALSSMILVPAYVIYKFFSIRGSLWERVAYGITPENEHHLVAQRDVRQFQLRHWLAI

The data set concerns the target T1, norepinephrine transporter (NET) (Rattus norvegicus, UniProt Q63380).
T1 construct: For NET assay, the thawed homogenate was suspended in NET assay buffer; from tissue; host or cells: rat cerebral cortex
The settings on record: radioligand constant used in Cheng-Prusoff conversion; cited from earlier work.

On to [^3H]nisoxetine, for which the Kd was 0.8 nM.

Broadly, the Kd is the free concentration of one partner at which half of the binding sites on the other are occupied at equilibrium, for simple one-to-one binding.
